Reference: publication PMC4216208 (Journal of Medicinal Chemistry, 2014)

Target: T1, OvCHT1 (Onchocerca volvulus, UniProt Q25615)
T1 sequence (Q25615 22-497): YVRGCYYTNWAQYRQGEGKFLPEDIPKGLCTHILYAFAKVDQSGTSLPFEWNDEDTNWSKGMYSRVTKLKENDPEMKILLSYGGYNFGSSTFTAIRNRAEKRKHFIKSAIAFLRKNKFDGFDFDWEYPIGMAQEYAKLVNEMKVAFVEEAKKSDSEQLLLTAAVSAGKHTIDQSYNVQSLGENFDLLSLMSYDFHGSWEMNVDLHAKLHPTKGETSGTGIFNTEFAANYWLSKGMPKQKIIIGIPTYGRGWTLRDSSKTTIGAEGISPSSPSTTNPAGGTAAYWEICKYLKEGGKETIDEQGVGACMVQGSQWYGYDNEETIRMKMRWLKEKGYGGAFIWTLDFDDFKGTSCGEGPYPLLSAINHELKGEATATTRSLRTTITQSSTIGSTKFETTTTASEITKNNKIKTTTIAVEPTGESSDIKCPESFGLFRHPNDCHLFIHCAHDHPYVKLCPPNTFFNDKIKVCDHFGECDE
Assay: O. volvulus chitinase
Type: biochemical

- enhancement of potency against OvCHT1 relative to 3a: ~3 fold
SMILES: O=C(Nc1ccc(Oc2ccc(Cl)cc2)cc1)c1cc(I)cc(I)c1O [Compound 3h, N-(4-(4-Chlorophenoxy)phenyl)-2-hydroxy-3,5-diiodobenzamide]
